As usually defined, the IC50 is the midpoint of a concentration-inhibition curve. Higher therefore signals lower potency.

The assay deals with human RAF1 (Homo sapiens (Human), UniProt P04049). Description: Protein kinase assay (radiometric 33P-ATP, MEK1 (K97R) substrate), RAF-1. In kind it is biochemical. To be noted: human MEK1 (K97R) substrate 3 micromolar, ATP 10 micromolar, 3-fold serial dilution starting at 10 micromolar. As to the method:
Example 1: Kinase Assay Protocol
Assay platform was used to measure kinase/inhibitor interactions as described previously (Anastassiadis et al., 2011). In brief, for each reaction, kinase and substrate were mixed in a buffer containing 20 mM HEPES (pH 7.5), 10 mM MgCl2, 1 mM EGTA, 0.02% Brij35, 0.02 mg/mL BSA, 0.1 mM Na3VO4, 2 mM DTT, and 1% DMSO. All compounds were solubilized in DMSO. Compounds were then added to each reaction mixture via acoustic dispense using an ECHO 550 nanoliter dispenser. For human RAF1 testing, human MEK1 (K97R) was used as a substrate at a concentration of 3 micromolar, with a final ATP concentration of 10 micromolar. For human BRAF testing, human MEK1 (K97R) was used as a substrate at 1 micromolar concentration, with a final ATP concentration of 25 micromolar. Compounds were tested in 10-dose IC50 mode with a 3-fold serial dilution starting at 10 micromolar. After a 20-min incubation, ATP (Sigma-Aldrich, St. Louis, Mo. 63178) and [g33P] ATP (specific activity 10 microCi/microliter) purchased at PerkinElmer (Boston, Mass., 02118 Cat #BLU 003H250UC) were added at a final total concentration of 10 mM. […] The percent remaining kinase activity relative to a vehicle-containing (DMSO) kinase reaction was calculated for each kinase/inhibitor pair. IC50 values were calculated using Prism 5 (GraphPad).

`Cc1ccc(NC(=O)N2CC[C@@H](CC(F)(F)F)C2)cc1-c1cc(C(=O)N(C)C)nc(N2CCOCC2)c1` [Example 19, N, N-dimethyl-4-[2-methyl-5-[(3S)-3-(2,2,2-trifluoroethyl)pyrrolidine-1-carbonylamino]phenyl]-6-(morpholin-4-yl)pyridine-2-carboxamide] displayed a concentration for half-maximal inhibition (IC50) of less than 1 nM.
